AlphaSeq binding of Ab-14 heavy chain variants to a spike HR2 peptide

From the AlphaSeq antibody data of Li et al. 2023 (doi:10.1038/s41467-023-39022-2), copy in the FLAb collection.

All variants were tested on one target, the spike HR2 peptide PDVDLGDISGINAS (SARS-CoV-2).

Ab-14 is the parent antibody, in scFv form: VH, then three GGGGS repeats, then VL. The light chain is unchanged in all variants.
VH: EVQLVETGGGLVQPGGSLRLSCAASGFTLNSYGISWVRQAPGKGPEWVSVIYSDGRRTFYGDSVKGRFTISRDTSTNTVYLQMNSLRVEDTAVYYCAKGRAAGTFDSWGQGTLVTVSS
VL: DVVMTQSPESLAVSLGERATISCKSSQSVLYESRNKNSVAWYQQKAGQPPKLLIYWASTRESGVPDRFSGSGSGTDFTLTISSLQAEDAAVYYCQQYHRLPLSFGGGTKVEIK

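The variants were designed computationally from a first round of random CDR variants and then made and measured. Group labels follow the data file (Ctrl: baseline library sampled from a position-specific scoring matrix, with some repeated check sequences; Rand: our label for a block that the file lists under HC and that is probably the random mutants of the ten best first-round binders; En: ensemble of fine-tuned language models; GP: Gaussian process model; GPLM: also part of the Gaussian process libraries; HC: hill climbing; Gen: genetic algorithm; Gibbs: Gibbs sampling; a sequence that several methods proposed may carry one label only). The scFvs were displayed on barcoded MATa yeast, the peptide on MATalpha yeast. Mating (16 h, 30 °C) was followed by selection of diploids and sequencing of their barcodes. A regression on co-assayed BCL2-family reference pairs converts the normalised counts of each replicate to an apparent Kd. Each pool was mated in six replicate cultures.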

Variants are written as CDR1, CDR2 and CDR3 of the heavy chain (limits as in the source). Parent: GFTLNSYGIS, VIYSDGRRTFYGDSVK, GRAAGTFDS.
Scale: log10 of Kd in nM, estimated from mating counts; low values are strong binders.
The mean shown is taken over the replicates in which the pair was detected.
An entry "nd" has no value in the source: the pair was not observed among the diploids in any replicate. This suggests poor binding but is not conclusive.

CDR-H1	CDR-H2	CDR-H3	group	log10 Kd (nM), mean	seen in
GFDLNEYGIS	VIYADGRRTFYADSVK	GTAGGTFDM	En_HC	0.13	6 of 6
GFRLNSYGIS	VIYSDGRRTFYDDSVK	GRLAGTFDS	GP_HC	1.59	3 of 6
GFELNSYGIS	VIYSDGRRTFYIDSVK	GWTAGTFDS	GP_Gen	0.64	6 of 6
GFDLNEYGIS	VIYADGMRTFYADSVK	GEVAGTFDQ	En_Gen	-0.92	6 of 6
GFDLNDYGIS	VIYSDGRRTWYGDSVK	GRAAGTFDS	GP_HC	1.23	6 of 6
GFTLNSYGIS	VIYSDGRRTFYGDSVK	GEEAGTFDT	GPLM_Gen	1.38	5 of 6
GFDLNEYGIS	VIYADGMRTYYADDVK	GNNAGTFDV	En_Gen	-0.40	6 of 6
GFTLNSYGIS	VIYSDGFRTFYGDSVK	GYAAGTFHS	Ctrl	nd	0 of 6
GFDLNEYGIS	VIYADGIRTAYVDSVK	GNVAGTFDV	En_Gen	-0.27	6 of 6
GFTLNSYGIS	VIYSDGERTFYGDSVK	GRDAGTVDS	Ctrl	nd	0 of 6
GFDLNSYGIS	VIYSDGRRTFYLDSVK	GQEAGTFDS	GP_HC	0.33	3 of 6
GFDLNEYGIS	VIYSDGRRTFYGDSVK	GRMAGTFDS	GP_Gibbs	0.09	6 of 6
GFELNEYGIS	VIYSDGRRTFYGDSVK	GQAAGTFDL	GPLM_Gen	0.41	6 of 6
GFTLQSYGIS	VIYSDGRRTFYGDSVK	GRAAGLFDM	Ctrl	nd	0 of 6
GFDLDEYGIS	VIYADGQRTFYADSVK	GNVAGTFDQ	En_Gen	-0.53	6 of 6
GFDLNEYGIS	VIYADGMRTFYADDVK	GQNAGTFDL	En_Gen	0.54	6 of 6
GFVLNSYGIS	VIYSDGRRTFYGDSVK	GTAAGTFDD	Ctrl	2.81	2 of 6
GFDLNSYGIS	VIYSDGRRTAYGDSVK	GRNAGTFDS	GPLM_Gibbs	-0.10	6 of 6
GFDLNEYGIS	VIYADGKRTAYADSVK	GENAGTFDL	En_Gen	-0.25	6 of 6
GFDLNEYGIS	VIYADGSRTFYADSVK	GEAAGSFDM	En_HC	0.54	1 of 6
GFSPNSYGIS	VIYSDGRRTFYIDSVK	GRAMGTFDS	Ctrl	nd	0 of 6
GFALNEYGIS	VIYADGFRKAYINSVK	GVLNMDVNV	En_Gibbs	nd	0 of 6
HFSLNEYGIS	VIYSDGRRTMYGDSVK	GRTAGTFDS	GP_Gibbs	0.34	6 of 6
GFTLDSYGIS	VIYSDGRRTFYHDSVK	GQLAGTFDS	GP_HC	0.44	6 of 6
GFDVEDYGIS	VIYADGRQQQYAQKFK	GTIAGTFVD	En_Gibbs	nd	0 of 6
GFSLNEYGIS	VIYSDGSRTFYGDSVK	GRTAGTFDS	GPLM_Gen	0.07	6 of 6
GFSLNEYGIS	VIYSDGRRTFYGDSVK	GREAGTFDT	GPLM_Gen	-0.25	6 of 6
GFDLDEYGIS	VIYADGVRTAYADSVK	GENAGTFDL	En_Gen	-0.01	6 of 6
GFTLNEYGIS	VIYSDGRRTFYSDSVK	GNAAGTFDS	Ctrl	0.56	6 of 6
GFDINEYGIS	VIYADGKKTAFANSVK	GESAGTFDD	En_Gibbs	0.84	6 of 6
GFSLNSYGIS	VIYSDGRRTFYSDSVK	GRQAGTFDS	GPLM_Gibbs	0.04	6 of 6
GFTLNSYGIS	VIYSDGMRTFYGDSVR	GIEAGTFDS	Ctrl	1.60	6 of 6
GFDLDEYGIS	VIYADGVRKAYADSVK	GNVAGTFDV	En_Gen	-0.69	6 of 6
GMDLNEYGIS	VIYADGLRTAYIDEVK	GKGSVIIGH	En_Gibbs	nd	0 of 6
GFALNSYGIS	VIYSDGRRTFYHDSVK	GQLAGTFDS	GP_HC	0.40	6 of 6
GFDLDEYGIS	VIYADGTRRYYADNVK	GDYVYVNST	En_Gibbs	3.47	1 of 6
GFDLNEYGIS	VIYADGRRTAYQDSVK	GNVAGTFDV	En_Gen	-0.62	6 of 6
GFDLDEYGIS	VIYADGNRQVYQDNVK	GGRFVTNIV	En_Gibbs	nd	0 of 6
GFDLDEYGIS	VIYADGSRTAYADSVK	GENAGTFDQ	En_Gen	0.12	6 of 6
GFQLNSYGIS	VIYSDGRRTFYGDSVK	GRDAGTFDS	GP_HC	2.47	3 of 6
GFDLDEYGIS	VIYADGRRTFYQDSVK	GQIAGTFDQ	En_HC	-0.08	6 of 6
GFDLNEYGIS	VIYSDGRRTFYADSVK	GRFAGTFDS	GP_HC	-0.15	6 of 6
GKSLEEYGIS	VIYADGKRSMYANNVK	GHVGYIFMM	En_Gibbs	nd	0 of 6
GFTLNMYGIS	VIYSDGRRTFYQDSVK	GRAAGTFDS	Ctrl	nd	0 of 6
GFTLNDYGIS	VIYSDGRRTWYIDSVK	GRAAGTFDS	GPLM_HC	1.09	6 of 6
GFNLNSYGIS	VIYSDGRRTFYGDSVK	GRTAGTFDT	GPLM_Gen	0.31	6 of 6
GFQLNSWQIS	VIYADGRRTFYGDSVK	GRGAGTNKS	Rand	nd	0 of 6
GFDLDEYGIS	VIYADGKRTAYADSVK	GNVAGTFDL	En_Gen	-1.01	6 of 6
GFTLNSYGIS	VIYADGRRTAYADSVK	GRAAGCFIS	Ctrl	nd	0 of 6
GFDLNSYGIS	VIYSDGRRTFYVDSVK	GQAAGTFDF	GP_Gibbs	1.41	6 of 6
GFDLNSYGIS	VIYSDGRRTFYGDSVK	GRQAGTFNS	GPLM_HC	1.87	5 of 6
GFDLNEYGIS	VIYADGRRTAYSDSVK	GEAAGTFDA	En_HC	nd	0 of 6
GFDLNEYGIS	VIYADGQRTFYTDSVK	GEFAGTFDQ	En_HC	0.32	6 of 6
GFDLNSYGIS	VIYSDGRRTFYQDSVK	GQLAGTFDS	GP_HC	0.49	6 of 6
GFNLNEYGIS	VIYADGRRSFYSDSVK	GETAGTFDV	En_HC	0.16	6 of 6
GFHLMSYGIS	VIYSDGRRTSYGDSVK	GRAAGTFDS	Ctrl	2.11	2 of 6
GFNLDSYSRS	VIYSDGRRTFYGDDVK	GREAGTFDS	Ctrl	-0.63	6 of 6
GFELNSYGIS	VIYSDGRRTFYSDSVK	GQTAGTFDS	GPLM_Gibbs	-0.13	6 of 6
GFDLDEYGIS	VIYADGMRTAYANSVK	GEVAGTFDL	En_Gen	0.07	6 of 6
GFTLNDYGIS	VIYSDGRRTQYEDSVK	GRAGGTFDS	Rand	nd	0 of 6

Repeated from above, the 6 best binders with a signal in all replicates:

CDR-H1,CDR-H2,CDR-H3,group,"log10 Kd (nM), mean",seen in
GFDLDEYGIS,VIYADGKRTAYADSVK,GNVAGTFDL,En_Gen,-1.01,6 of 6
GFDLNEYGIS,VIYADGMRTFYADSVK,GEVAGTFDQ,En_Gen,-0.92,6 of 6
GFDLDEYGIS,VIYADGVRKAYADSVK,GNVAGTFDV,En_Gen,-0.69,6 of 6
GFNLDSYSRS,VIYSDGRRTFYGDDVK,GREAGTFDS,Ctrl,-0.63,6 of 6
GFDLNEYGIS,VIYADGRRTAYQDSVK,GNVAGTFDV,En_Gen,-0.62,6 of 6
GFDLDEYGIS,VIYADGQRTFYADSVK,GNVAGTFDQ,En_Gen,-0.53,6 of 6

The range of this assay differs from that of the first round, and the authors advise against merging the two.
As a blank, each scFv also met three strains without target: over all heavy chain designs, 1% of these pairings were detected, typically at 2.08 and seldom below 0.84.
The authors averaged sequences with at least three values out of six and counted those with two or fewer as poor binders.